Results taken from patent US6566355B1 (Hoffmann-La Roche Inc., priority 1991, dated 2003).

Chains of the proteins cited; added tags and fusions are not shown. Residues count along the entry.
UniProt P05193, 21-381: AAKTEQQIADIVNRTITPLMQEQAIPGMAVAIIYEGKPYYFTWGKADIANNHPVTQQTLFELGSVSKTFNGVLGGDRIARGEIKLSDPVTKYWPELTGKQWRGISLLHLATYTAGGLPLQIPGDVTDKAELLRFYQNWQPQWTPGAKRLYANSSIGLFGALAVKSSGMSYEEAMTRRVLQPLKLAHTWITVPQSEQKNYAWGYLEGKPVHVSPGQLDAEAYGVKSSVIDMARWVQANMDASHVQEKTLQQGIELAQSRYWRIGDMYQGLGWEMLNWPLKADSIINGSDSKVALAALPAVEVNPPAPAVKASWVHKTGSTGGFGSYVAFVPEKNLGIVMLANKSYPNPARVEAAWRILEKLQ

Target: T1, β-lactamase (Citrobacter freundii, UniProt P05193)
T1 construct: Various β-lactamases can be isolated from penicillin- or cephalosporin-resistant bacterial strains such as; endogenous in cells; host or cells: Citrobacter freundii 1203 (enzyme purified from the crude cell extract, after ampicillin induction when necessary)
Type: biochemical
Details: isolated β-lactamase of Citrobacter freundii; substrate nitrocefin 0.1 mM; 15 minutes pre-incubation with inhibitor; 37° C., pH 7.0
Experimental: A. Isolation of the β-lactamases
Various β-lactamases can be isolated from penicillin- or cephalosporin-resistant bacterial strains such as Klebsiella pneumoniae NCTC 418, Proteus vulgaris 1028, Bacillus licheniformis 749/C, Escherichia coli SN01 and Citrobacter freundii 1203. For this purpose, the corresponding strains are cultivated in Tryptic Soy Broth (Difco) and harvested by centrifugation in the last logarithmic growth phase (when necessary 50-100 mg/l of ampicillin are added to the medium towards the end of the log-phase in order to induce the β-lactamase). The thus-obtained bacterial mass is treated with 20 mM Tris-HCl buffer (pH 7.0); the cells are broken open with a French press while cooling. The mixture is centrifuged (20,000 r/min.) for 20-30 minutes and a clear crude extract is obtained.
B. Determination of the β-lactamase activity
The determination of the activity of the isolated β-lactamases can be carried out according to the method of O'Callaghan, C. H. et al. [Antimicr. Ag. Chemother., 1, 283-288 (1972)] using the chromogenic cephalosporin nitrocefin (87/312 from Glaxo). […] The cleavage of the substrate, which is accompanied by a change in colour, is effected at 37° C. and is followed quantitatively at 482 nm using a spectral photometer. […]

## (1S,5R)-2-(Furan-2-ylcarbonyl-carbazoyl)-7-oxo-2,6-diazabicyclo[3.2.0]heptane-6-sulphonic acid sodium salt [17(q)]
  IC50: 576 nM

## (1S,5R)-(E)-3-Phenyl-acryloyl-2,6-diazabicyclo[3.2.0]heptane-6-sulphonic acid sodium salt [11(a)]
  IC50: 76 nM
